Test system: MCF7 spheroids
Assay type: cell-based
Details: presence of Trastuzumab 2.5 μg/mL and NK92-CD16 (5:1), paclitaxel dose range, 24 h
Procedure: High-content imaging of 3D tumor spheroid micropillar array for effector cell-mediated cytotoxicity including NK ADCC/drug combination. Uniform-sized 3D spheroids in the 330-micropillar array were used to perform high-throughput ADCC on three different cancer cell lines; MiaPaCa-2, MCF7 and MDA-MB-231, the latter a triple negative breast cancer cell line, in the presence and absence of two chemotherapeutic drugs, doxorubicin and paclitaxel. The ADCC screen was performed by spotting 250 nL onto polydopamine-coated micropillars including 2500 target cancer cells per spot. The cells were cultured for 3 days and then treated with NK92-CD16 cells. […] As a control, one block of spots was reserved for exposure of target cells with both antibody and the drugs but without NK92-CD16 cells. The micropillar/microwell sandwich platform was incubated for 24 h upside-down to allow for target cell killing on culture day 3. […]
Similarly, for the dose response experiments with paclitaxel, where the E:T ratio was fixed at 5:1, 25 different conditions including a dead cell control were evaluated, as shown in Table 2.
Unconjugated anti-HER2 antibody was used for experiments on 330 micropillar/microwell chips. […] The chips were subsequently washed in DPBS and imaged using an ASFA™ Cell Scanner (MBD Korea Co., South Korea) and quantitatively analyzed using cell analyzer software within the imaging system. […]

Trastuzumab
killing of tumor spheroids: augmented
